Test results: patent US9290743B2, “L-aspartate oxidase variant and a method for producing quinolinate or nicotinic acid using the same” (CJ CHEILJEDANG CORP., priority 2013, dated 2016)

Columns and labels:
[1] = Decarboxylation of quinolinate-containing culture solution to nicotinic acid; conditions: converted from quinolinate at about 135 degrees, about 0.2 MPa, about 3 hours, pH 2
Excerpt: To identify the ability to produce nicotinic acid of the quinolinate-producing strains into which nadB variants were introduced, the yields of quinolinate in Table 10 were used. The production method of nicotinic acid used herein was decarboxylation of the quinolinate-including culture solution under high-temperature and high-pressure conditions based on the disclosure of Korean Patent No. 10-1223904, to convert quinolinate to nicotinic acid. To remove cells from the quinolinate-containing culture solution, centrifugation was performed at about 3000 rpm to about 4000 rpm for about 10 minutes to about 30 minutes. The quinolinate-containing supernatant resulting from the centrifugation was separated and used as a sample for decarboxylation reaction.
The decarboxylation reaction was conducted at about 135[…] at about 0.2 MPa for about 3 hours. An aqueous solution of quinolinate (a standard product of Sigma-Aldrich Co.) in deionized water was used as a control group. Each samples of the aqueous solutions of quinolinate was titrated with sodium hydroxide, ammonia water, hydrochloric acid, or sulfuric acid, specifically the conversion of quinolinate into nicotinic acid took place at pH of 2. […]

[2] = test system: W3110-ΔnadC; assay: Quinolinate titer assay with nicotinic acid (NA) added to the culture medium, HPLC; type: cell-based, E. coli; conditions: for yield of quinolinate (relative): culture medium contains nicotinic acid 5 uM or greater; for Quinolinate: culture solution used for decarboxylation (values of Table 10, NA 0 uM)
Experimental: To compare the ability to produce quinolinate in the wild type nadB gene and nadB gene variants with respect to NAD concentration, a quinolinate titer assay was conducted. After the quinolinate-producing strain (W3110-ΔnadC) obtained in <2-1> of Example 2 was transformed with the plasmidpPro-nadB67-pCJq1-nadA constructed in <2-2> of Example 2, and each of the 18 types of nadB67 variants constructed in <2-2-1> of Example 2 via CaCl2 method. […] To identify the NAD feedback resistance of the nadB67 variants, nicotinic acid (NA) was added to the culture medium at different concentrations, followed by comparison of the produced quantities of quinolinate.
The quantity of quinolinate (quinolinic acid, QA) in each of the culture solutions was analyzed by high performance liquid chromatography (HPLC).
Referring to Table 11, the yield of quinolinate was less than 50% when the pPro-nadB-pCJ-nadA plasmid including the wild type nadB gene was used, and the culture medium contains nicotinic acid, over 5 uM or greater. Whereas the yield of quinolinate was 70% or greater when the pPro-nadB67-pCJ-nadA plasmid and 302nd variants recombinant plasmids including the nadB gene variant were used. W3110-ΔnadC strain is an NAD auxotroph that requires supply of external NAD for growth. W3110-ΔnadC strain is unable to directly accept NAD, and uses heterogenous nicotinic acid (NA) or nicotinamide (Nm) to produce NAD. When an amount of intracellular NAD is 1 mM or greater, the nadB gene is feedback-regulated to maintain the amount of intracellular NAD constant. Accordingly, the production of QA may be limited by the nadB gene that is feedback-regulated. Adding NA to a culture medium means an increase of NAD in a strain. Accordingly, the production quantities of QA were compared between the strains with the addition of NA to the culture medium at different concentrations to identify a degree of feedback regulation in the nadB gene variants with respect to NAD concentration.

[3] = NA 0 uM (100% basis), strain W3110-ΔnadC

Substance: pPro-nadB67-pCJ-nadA: recombinant vector with nadB variant (Lys302Arg) and wild nadA gene, SEQ ID NO: 28
- Nicotinic acid [1]: 3324 mg/L
- Relative yield of quinolinate, Relative Percentage [2, 3]: 100%
- QA production quantity ([2]; NA 0 uM, strain W3110-ΔnadC): 4553 mg/L
- Relative yield of quinolinate, Relative Percentage ([2]; NA 5 uM, relative to NA 0 uM): 85%
- QA production quantity ([2]; NA 5 uM, strain W3110-ΔnadC): 3860 mg/L
- Relative yield of quinolinate, Relative Percentage ([2]; NA 10 uM, relative to NA 0 uM): 71%
- QA production quantity ([2]; NA 10 uM, strain W3110-ΔnadC): 3251 mg/L
- yield of quinolinate (relative) [2]: ≥ 70%
- Quinolinate [2]: 4553 mg/L

Substance: pPro-nadB-pCJ-nadA: recombinant vector of 5.9 kb with wild type nadB (pPro promoter) and nadA (pCJ1 promoter), SEQ ID NO: 27 [reference compound]
- Nicotinic acid [1]: 2555 mg/L
- Relative yield of quinolinate, Relative Percentage [2, 3]: 100%
- QA production quantity ([2]; NA 0 uM, strain W3110-ΔnadC): 3500 mg/L
- Relative yield of quinolinate, Relative Percentage ([2]; NA 5 uM, relative to NA 0 uM): 46%
- QA production quantity ([2]; NA 5 uM, strain W3110-ΔnadC): 1600 mg/L
- Relative yield of quinolinate, Relative Percentage ([2]; NA 10 uM, relative to NA 0 uM): 20%
- QA production quantity ([2]; NA 10 uM, strain W3110-ΔnadC): 700 mg/L
- yield of quinolinate (relative) [2]: less than 50%
- Quinolinate [2]: 3500 mg/L
